## AlphaSeq binding of Ab-14 heavy chain variants to a spike HR2 peptide

Source: Li et al. 2023 (doi:10.1038/s41467-023-39022-2), MIT Lincoln Laboratory and A-Alpha Bio; data file from the FLAb repository.

Antigen: PDVDLGDISGINAS, a 14-residue peptide of the SARS-CoV-2 spike HR2 region.

Parent: Ab-14, a human scFv built as VH, a 15-residue (Gly4Ser)3 linker, VL. Only the CDRs of the heavy chain vary.
VH: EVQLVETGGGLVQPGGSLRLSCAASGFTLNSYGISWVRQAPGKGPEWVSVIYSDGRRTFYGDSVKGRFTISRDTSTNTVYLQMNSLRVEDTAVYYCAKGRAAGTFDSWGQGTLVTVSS
VL: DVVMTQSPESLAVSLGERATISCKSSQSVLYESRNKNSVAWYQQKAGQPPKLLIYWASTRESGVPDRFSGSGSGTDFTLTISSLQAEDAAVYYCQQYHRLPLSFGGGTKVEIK

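The starting antibody came from a phage panning campaign against this peptide. These sequences belong to a second round, designed from the earlier measurements on random variants of the parent. Several design methods are mixed in this list. AlphaSeq pools MATa yeast showing the antibodies with MATalpha yeast showing the peptide. Binding brings cells together so that they mate, and sequencing counts the barcode pairs among the diploids. Scores were corrected for input abundance and mapped to Kd with protein pairs of known affinity run in the same pool. The assay was run in six technical replicates.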

Variants are written as CDR1, CDR2 and CDR3 of the heavy chain (limits as in the source). Parent: GFTLNSYGIS, VIYSDGRRTFYGDSVK, GRAAGTFDS.
Numbers give log10(Kd / nM), so 0 is 1 nM and 3 is 1 µM. Smaller is tighter.
Replicates are averaged; those with no signal do not enter the mean.
"not detected" marks a missing value. The strain was present, yet no cells mated with the target were sequenced in any replicate, which points to weak or no binding.

CDR-H1,CDR-H2,CDR-H3,"mean, log10 nM",detected,control signals
GFTLNSYGIS,VIYSDGRRTAYSDSVK,GRAAGGFDS,not detected,0/6,0/18
GFTLNDYGIS,VIYSDGRRTFYGDSVK,GRCAGTFMS,not detected,0/6,0/18
GFDLNMYGIS,VIYSDGRRTFYADSVK,GKAAGTFDS,1.05,1/6,0/18
GFNLNSYGIS,VIYSDGRRTFYGDSVK,GRNAGTFDS,1.03,12/12,1/36
GFDLNEYGIS,VIYADGVRTAYADSVK,GQNAGTFDT,-0.38,6/6,0/18
GFSLNEYGIS,VIYSDGRRTFYGDSVK,GPAAGTFDR,not detected,0/6,0/18
GVDIDEYGIS,VIYADGIRQFYQDKVK,GNVGGMFDT,0.79,6/6,1/18
GFDLNEYGIS,VIYADGRRTAYVDSVK,GNTAGTFDV,-0.19,6/6,0/18
GFTLNDYGIS,VIYSDGRRTFYSDSVK,GRAAGQFDS,not detected,0/6,0/18
GHDLNSYGIS,VIYSDGRRTFYGDSVK,GRAAGWFNS,not detected,0/6,0/18
GFTLNSYGIS,VIYSDGRRTEYGDSVK,GRAAGTFFQ,not detected,0/6,0/18
GFDLNEYGIS,VIYADGRRTAYDDSVK,GQVAGTFDK,-0.72,1/6,0/18
GESLDEYGIS,VIYADGMRTAYTDDVK,GLVAATLVD,1.69,1/6,0/18
FFSLNEYGIS,VIYSDGRRTFYGDSVK,GRAAVTFDQ,not detected,0/6,0/18
GFKLDEYGIS,VIYADGHRVAYSQKVK,GDNVGAFFE,-0.08,6/6,0/18
GFELNSYGIS,VIYSDGRRTFYGDRVK,GKTAGTFDS,2.04,1/6,1/18
GFHLNDYGIS,VIYSDGRRTFYADSVK,GRLAGTFDS,0.26,6/6,0/18
GFTLNEYGIS,VIYSDGRRTSYGDSVK,GRAAGQFDE,not detected,0/6,0/18
GFTLNSYGIS,VIYSDGRRTFYDDSVK,GQLAGTFDD,1.58,6/6,0/18
GFDVEDYGIS,VIYADGRRQQYAQKFK,GTIAGTFVD,not detected,0/6,0/18
GFDLDEYGIS,VIYADGKRTAYADSVK,GNNAGTFDI,-0.79,6/6,0/18
GFSLNMYGIS,VIYSDGRRTFYIDSVK,GREAGTFDS,0.90,6/6,0/18
GFNIDEYGIS,VIYADGVRTAYVDKVK,GFGQVLSLD,1.48,1/6,0/18
GFDLNEYGIS,VIYADGVRKFYADSVK,GNTAGTFDV,-0.56,6/6,0/18
GFSLNSYGIS,VIYSDGRRTFYGDSVK,GVEAGTFDS,0.37,5/6,0/18
GFDLNEYGIS,VIYADGRRTAYADSVK,GENAGTFDL,0.10,5/6,0/18
GFWLNSYGIS,VIYSDGRRTFYDDSVK,GQLAGTFDS,1.75,4/6,0/18
GFSLNEYGIS,VIYSDGRRTFYGDSVK,GVAAGTFDR,0.73,6/6,0/18
GKDIEEYGIS,VIYADGMRQAYLDSVK,GNVVGSGSF,not detected,0/6,0/18
GFTLNQYGIS,VIYSRGRRTQYSDSVK,GRAAGFFDS,not detected,0/6,0/18
GDSLDEYGIS,VIYADGQRKAYMDKVK,GNGQGTLFD,not detected,0/6,0/18
GFSLNSYGIS,VIYSDGRRTFYADRVK,GKAAGTFDS,1.48,5/6,0/18
GFDLEEYGIS,VIYADGMRTAYADSVK,GNQAGTFDV,-0.30,6/6,0/18
GFTLESFGIS,VIYSDGVRTFYGDNVK,GRAAGTFPS,not detected,0/6,0/18
GFDLNSYGIS,VIYSDGRRTFYDDSVK,GRAAGTFNS,0.65,1/6,0/18
GFDLNEYGIS,VIYADGMRTAYADNVK,GNVAGTFDV,-0.63,6/6,1/18
GFDLNSYGIS,VIYSDGRRTFYGDSVK,GRMAGTFDT,0.19,6/6,2/18

Second part, the sequence after the result:

"mean, log10 nM",detected,control signals,CDR-H1,CDR-H2,CDR-H3
0.36,6/6,0/18,GFDLNEYGIS,VIYADGMRTAYADSVK,GNNAGTFVV
-0.28,6/6,1/18,GFDLDEYGIS,VIYADGRRTFYADSVK,GNVAGTFDQ
0.18,12/12,0/36,GFTLNSYGIS,VIYADGRRTFYGDSVK,GRAAGTFDL
0.39,1/6,0/18,GFTLNEYGIS,VIYSDGRRTFYADDVK,GEAAGTFKS
0.91,6/6,1/18,GFTLNEYGIS,VIYADGRRTFYGDSVK,GRAAGTFTS
not detected,0/6,0/18,GFTLNSYGIS,VIYSDGRRTFYHDSVK,GRAAGTFAS
0.96,6/6,1/18,GFTLNSYGIS,VIYSDGRRTFYADDVK,GQLAGTFDS
-0.26,6/6,0/18,GFELNEYGIS,VIYSDGRRTFYGDDVK,GRTAGTFDS
-0.32,6/6,0/18,GFTLDEYGIS,VIYADGRRTFYADSVK,GNQAGTFDQ
-0.72,6/6,0/18,GFDLNEYGIS,VIYADGVRKYYADSVK,GNVAGTFDV
1.81,3/6,0/18,GFTLLSYGIS,VIYSDGQRTFYIDSVK,GRAAGTFDT
0.63,6/6,0/18,GFSLNEYGIS,VIYSDGRRTFYSDSVK,GRAGGTFDS
1.23,1/6,0/18,KFTLNSYGIS,VIYSDGRRTQYGDSVK,GRAAGTFDS
0.59,6/6,1/18,GFTLNEYGIS,VIYSDGWRTFYSDSVK,GRAAGTFDS
not detected,0/6,0/18,GNDLQEYGIS,VIYADGQRVNAVSQVK,GEQAGTFKL
0.80,1/6,0/18,GFWLNDYGIS,VIYSDGRRTQYIDSVK,GRAAGTFDS
-0.76,6/6,1/18,GFDLDEYGIS,VIYADGVRTAYTDSVK,GQNAGTFDV
0.81,6/6,0/18,GFTLNEYGIS,VIYSDGRRTFYSDSVK,GHAAGTFDG
not detected,0/6,0/18,GFTLNSYGIQ,VIYSDGRRTAYGDSVK,GRAAGTFMS
not detected,0/6,0/18,GFTLNSYGIS,VIYSDGYRTFYGDSVK,GRQADTFES
-0.39,6/6,0/18,GFDLDEYGIS,VIYADGVRTAYSDSVK,GNVAGTFDL
not detected,0/6,0/18,GFTLNQYGIS,VIYSDGRRTQYSDSVK,GRAAGFFDS
0.53,6/6,0/18,GFTLNSYGIS,VIYSDGRRTFYDDSVK,GTEAGTFDS
2.57,3/6,0/18,GFDLNEYGIS,VIYADGRRTYYSDSVK,GEAAGTFVI
not detected,0/6,0/18,GFTLNSYGIS,VIYSDGRRTFYGDSVK,GRTAGTFWV
not detected,0/6,0/18,GFTLNEYGIS,VIYSDGRRTFYGWSVK,GRAAVTFDG
not detected,0/6,0/18,GFTLNEYGIS,VIYSDGVRTFYGDSVK,GRAAGTFIS
1.96,1/6,0/18,GFDLDEYGIS,VIYADGKRTSYQADVK,GVQGGNALV
not detected,0/6,0/18,GFDLGEYGIS,VIYADGKRTACVTNVK,GTFGGTLLD
-0.90,6/6,0/18,GFDLNEYGIS,VIYADGVRTAYADSVK,GNVAGTFDL
not detected,0/6,0/18,GFQLNDYGIS,VIYSDGRRTFYGDSVK,GRMAGTFIS
not detected,0/6,0/18,GFDLNEYGVS,VIYADGQRTYYTESVK,GKFWDQLFA
not detected,0/6,0/18,RETLNSYGIS,VIYSDGKRTFYGDSVK,GRAAGTGPS
not detected,0/6,0/18,GFNLNSYGIS,VIYSDGRRTFYQDSVK,GQTAGTFDS
not detected,0/6,0/18,GFTLNSYGGS,VDYSDGRRTFYGNQVR,GRAAGMFDS
not detected,0/6,0/18,GFTLNSYGIS,VIYSDGRRTFYADSVV,GRATGTFDV
-0.05,6/6,0/18,GFDLNSYGIS,VIYSDGKRTFYIDSVK,GREAGTFDS

Repeated from above, the 12 best binders with a signal in all replicates:

CDR-H1,CDR-H2,CDR-H3,"mean, log10 nM",detected,control signals
GFDLNEYGIS,VIYADGVRTAYADSVK,GNVAGTFDL,-0.90,6/6,0/18
GFDLDEYGIS,VIYADGKRTAYADSVK,GNNAGTFDI,-0.79,6/6,0/18
GFDLDEYGIS,VIYADGVRTAYTDSVK,GQNAGTFDV,-0.76,6/6,1/18
GFDLNEYGIS,VIYADGVRKYYADSVK,GNVAGTFDV,-0.72,6/6,0/18
GFDLNEYGIS,VIYADGMRTAYADNVK,GNVAGTFDV,-0.63,6/6,1/18
GFDLNEYGIS,VIYADGVRKFYADSVK,GNTAGTFDV,-0.56,6/6,0/18
GFDLDEYGIS,VIYADGVRTAYSDSVK,GNVAGTFDL,-0.39,6/6,0/18
GFDLNEYGIS,VIYADGVRTAYADSVK,GQNAGTFDT,-0.38,6/6,0/18
GFTLDEYGIS,VIYADGRRTFYADSVK,GNQAGTFDQ,-0.32,6/6,0/18
GFDLEEYGIS,VIYADGMRTAYADSVK,GNQAGTFDV,-0.30,6/6,0/18
GFDLDEYGIS,VIYADGRRTFYADSVK,GNVAGTFDQ,-0.28,6/6,1/18
GFELNEYGIS,VIYSDGRRTFYGDDVK,GRTAGTFDS,-0.26,6/6,0/18

A sequence measured in both rounds can read differently, since the two assays cover different ranges.
A sequence that the file lists under several names has all its replicates pooled.
In the paper, a design with two or fewer of six values counts as a poor binder.
The parent sequence was in this pool as ten entries: three were never detected, three once, and four in most replicates, with averages from 0.34 to 2.37.
Empty control strains, which show no peptide, gave a signal in 1% of pairings with all heavy chain designs; the median was 2.08 and 95% of these signals were weaker than 0.84. No background was subtracted. The control count says in how many pairings with the empty strains this scFv gave a signal.